Source: patent US12653798B2, “Fixed combination medicine for the control and management of neuropathic pain” (LABORATORIOS SILANES S.A. DE C.V., priority 2020, dated 2026)

Assay: Dissolution profile tests
Format: physicochemical

## Cc1ncc(CO)c(CO)c1O.Cl [pyridoxine hydrochloride]
T 5 min
  % dissolved: 91.75%
T 15 min
  % dissolved: 97.08%
T 30 min
  % dissolved: 97.56%
T 45 min
  % dissolved: 97.84%
